## scFv variants of Ab-14 (light chain) against a SARS-CoV-2 spike peptide

Values reported by Li et al. 2023, doi:10.1038/s41467-023-39022-2 (FLAb copy).

Target: peptide PDVDLGDISGINAS, taken from heptad repeat 2 (HR2) of SARS-CoV-2 spike.

Each scFv is VH, the linker GGGGSGGGGSGGGGS, VL, as in the parent Ab-14, and differs from it in the CDRs of the light chain only.
VH: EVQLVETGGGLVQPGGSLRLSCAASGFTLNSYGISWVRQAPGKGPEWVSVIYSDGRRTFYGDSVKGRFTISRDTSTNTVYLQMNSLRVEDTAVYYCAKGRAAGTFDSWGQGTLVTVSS
VL: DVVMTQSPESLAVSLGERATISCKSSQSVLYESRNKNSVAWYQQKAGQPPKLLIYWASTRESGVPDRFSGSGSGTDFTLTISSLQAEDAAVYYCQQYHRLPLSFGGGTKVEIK

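These sequences belong to a second round, designed from the earlier measurements on random variants of the parent. Several design methods are mixed in this list. In AlphaSeq, yeast of one mating type display the scFv and yeast of the other type display the target. The frequency of each diploid, read from paired DNA barcodes, reflects how well the two displayed proteins bind. The ratio of observed to expected reads was calibrated, replicate by replicate, on BCL2-family standards whose Kd was known from biolayer interferometry. Each pool was mated in six replicate cultures.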

Variants are written as CDR1, CDR2 and CDR3 of the light chain (limits as in the source). Parent: KSSQSVLYESRNKNSVA, WASTRES, QQYHRLPLS.
This list holds designs with at most six substitutions.
Kd is apparent (estimated from mating counts) and averaged on the log scale over replicates with a signal. Smaller is tighter.
Where no diploid with the target was found in any replicate, the entry reads "nd": below detection, most likely a poor binder, though not proof of it.
Three control strains display no target. For all light chain designs, 4% of the pairings with them gave a signal, with a median of 430 nM and one signal in twenty below 38 nM, so weak values seen in few replicates may be background.
The authors averaged sequences with at least three values out of six and counted those with two or fewer as poor binders.
Values of this round are not directly comparable with the first-round values of the same sequences.
The parent sequence was in this pool as ten entries: three were never detected, three once, and four in most replicates, with averages from 2.2 nM to 240 nM.

With KLPQSDLYESRNKNSVA / SASQRES / QQYHRLPLS the result was 750 pM (6 of 6 replicates). The variant DSSQSVLYESRNKNSVA / TASTREI / QQYHRLPLS showed 110 nM (2 of 6 replicates). The variant KFSVSVLYESRNGNSVA / GASTRES / QQYHRLPLS showed 760 pM (6 of 6 replicates). With KSRQSTLYESRNKNSVA / SDSTREQ / QQYHRLPLS the result was 8.7 nM (6 of 6 replicates). The variant KSLQSQEYESRNKNSVA / HASTRED / QQYHQLPLS showed 650 pM (6 of 6 replicates). The variant KSSQSVLYESRNKNSVA / WASSRES / QQYHRLPLS showed 500 nM (2 of 6 replicates). With KLEQSVLYESRNKNSVA / HASTREL / QQYHRLPLS the result was 3.8 nM (6 of 6 replicates). The variant KLEQSALYESRNKNSVA / NASTRES / QQYHRLPLS showed 550 pM (6 of 6 replicates). With KVSPSYLYESRNKNAVA / EASTRES / QQYHRLPLS the result was 210 pM (6 of 6 replicates).

The variant KISQSALMESRNWNSVA / NASKRES / QQYHRLPLS gave 2.2 nM (6 of 6 replicates). The variant KSSMSVLFQSRNKNSVA / DASTRES / QQYHRLPLS showed 3.0 nM (6 of 6 replicates). The variant KLMQLVLYESRNKNSVA / NASTREQ / QQYHRLPLS gave 2.2 nM (6 of 6 replicates). The variant KLQQSVLYESTDKNSVA / WASTRES / QQYHRLPLS gave 25 nM (6 of 6 replicates). The variant KMSQSQLYEWRNKNSVA / NASTRES / QQYHRLPLS gave 1.0 nM (6 of 6 replicates). The variant KVSQSELYESRNKNAVA / EASQRES / QQYHRLPLS showed 1.5 nM (6 of 6 replicates). The variant KLSQSVDYEDRNKNSVA / NASTRES / QQYHRLPLS gave 960 pM (6 of 6 replicates). With KSSQSVLYESRDKNSVA / WAVTRES / QCYYRLPTS the result was 6.0 µM (1 of 6 replicates). The variant HSSPSVDYESRNKNSVA / NASTRES / QQYHRLPLS gave 74 nM (1 of 6 replicates).

The variant KSDFSEPGESRNKNSVA / DASTRES / QQYHRLPLS showed 690 pM (6 of 6 replicates). For DSNQSVIYESRNKNSVA / EASTRES / QQYHRLPLS, the assay gave 22 nM (1 of 6 replicates). For KLRQSTKYESRNANSVA / SASTRES / QQYHRLPLS, the assay gave 1.3 nM (6 of 6 replicates). With KISQSWLYESRNKNSVA / GASLRES / QQYHRLPLS the result was 670 pM (6 of 6 replicates). For KSSQNVLYEERNKNSVA / WASTRES / DQYHRLPLS, the assay gave nd (0 of 6 replicates). The variant KLSQSDLYESRNFNSVA / NASTRES / QQYHRLPLS showed 1.3 nM (6 of 6 replicates). For KSSISVLEESRNKNSVA / EASTRES / QQYHRLPLS, the assay gave 630 pM (6 of 6 replicates). For KSSQSFLYENRNKNSVA / GASTRES / QQYHRLTLS, the assay gave 20 nM (1 of 6 replicates). The variant KTSQSDLYESRNKNSVA / WASTRES / QQYHELPLS gave 28 nM (5 of 6 replicates).

The variant KQSQSVLMESRNANSVA / DASTRES / QQYHRLPLS gave 930 pM (6 of 6 replicates). The variant KLSQSWLYEDRNKNSVA / GASTRES / QQYHRLPLS gave 500 pM (6 of 6 replicates). With ESSQSVEYESRNKNSVA / HASMRES / YQYHRLPLS the result was nd (0 of 6 replicates). The variant KLHQSVLYESRNKNSVA / NASTRMS / QQYHRLPLS gave 570 pM (6 of 6 replicates). For KVSQQVLYESRNKNSVA / EASTRES / QQYHRLPLS, the assay gave 610 pM (6 of 6 replicates). The variant KVSISYLLESRNKNSVA / EAHTRES / QQYHRLPLS showed 1.7 nM (6 of 6 replicates). The variant HSSPSVEYESRNKNSVA / NASTREQ / QQYHRLPLS showed 4.7 nM (6 of 6 replicates). For SSSQSVLYESRNKNSVA / WATTRES / QQYHRLPLS, the assay gave 170 nM (5 of 6 replicates). The variant KCSQSVFMESRNKASVA / WASTRES / QQYHELPLS gave 230 nM (6 of 6 replicates).

The variant KLSQSHLYESRNKNSVA / QASTRLS / QQYHRLPLS gave 1.8 nM (6 of 6 replicates). With KVSQSVLYQSRNKNSVA / WASTREM / QQYHRLPLS the result was 68 nM (6 of 6 replicates). The variant KVSQSWLYESRMKNSVA / NASTRES / QQYHRLPLS showed 400 pM (6 of 6 replicates). The variant KLSQSQLYESRNKNSVA / NASLRES / QQYHRLPLS gave 480 pM (6 of 6 replicates).

Excerpt, the first 2 entries:

The variant KLPQSDLYESRNKNSVA / SASQRES / QQYHRLPLS gave 750 pM (6 of 6 replicates).
The variant DSSQSVLYESRNKNSVA / TASTREI / QQYHRLPLS gave 110 nM (2 of 6 replicates).